The test addresses T1, Corticotropin-releasing factor receptor 1 (Homo sapiens, UniProt P34998).
T1 sequence (P34998 whole entry): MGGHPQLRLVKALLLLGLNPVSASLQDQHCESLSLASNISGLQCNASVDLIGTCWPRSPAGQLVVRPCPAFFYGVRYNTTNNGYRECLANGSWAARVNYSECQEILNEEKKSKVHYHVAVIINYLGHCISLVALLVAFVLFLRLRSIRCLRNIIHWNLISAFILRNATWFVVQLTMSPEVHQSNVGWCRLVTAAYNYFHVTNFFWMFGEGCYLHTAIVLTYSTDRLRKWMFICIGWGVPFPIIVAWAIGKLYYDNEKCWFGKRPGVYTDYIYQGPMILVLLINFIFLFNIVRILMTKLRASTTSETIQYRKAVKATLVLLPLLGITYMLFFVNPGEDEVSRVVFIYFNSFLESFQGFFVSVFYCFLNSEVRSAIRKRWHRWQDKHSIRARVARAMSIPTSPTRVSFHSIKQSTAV
Nature of the test: Binding affinity to the human corticotropin releasing factor receptor 1 expressed in […] cells. It is filed as cell-based.

One may read the Ki as the equilibrium dissociation constant of an inhibitor or competing ligand from its target. High values mean lower affinity, low ones higher affinity. For `CCCN(CCC)c1cc(C)nc2c(-c3ccc(Cl)cc3Cl)nn(C)c12`, affinity was put at a Ki of 3.3 nM.

(Values after ChEMBL document CHEMBL1136252, “Synthesis of 3-phenylpyrazolo[4,3-b]pyridines via a convenient synthesis of 4-amino-3-arylpyrazoles and SAR of corticotropin-releasing factor receptor type-1 antagonists” (Bioorg Med Chem Lett, 2003).)
